Measurements: publication PMC3908673 (Bioorganic & medicinal chemistry, 2013)

Target: β2-AR (Homo sapiens, UniProt P07550)
Type: binding
Details: marker [3H]-CGP-12177

C[C@H](Cc1ccc(O)cc1)NC[C@H](O)c1cc(O)cc(O)c1 [(R,R′)-1, (R,R′)-Fenoterol]
HS (Hill coefficient), displacement of [3H]-CGP-12177: 0.92 ± 0.1
